Data reported in ChEMBL document CHEMBL1155427, “Dopamine receptor ligands. Part 18: (1) modification of the structural skeleton of indolobenzazecine-type dopamine receptor antagonists” (J Med Chem, 2010).

By UniProt entry, the sequences of proteins in these tests, tags left out.
UniProt P14416, whole entry: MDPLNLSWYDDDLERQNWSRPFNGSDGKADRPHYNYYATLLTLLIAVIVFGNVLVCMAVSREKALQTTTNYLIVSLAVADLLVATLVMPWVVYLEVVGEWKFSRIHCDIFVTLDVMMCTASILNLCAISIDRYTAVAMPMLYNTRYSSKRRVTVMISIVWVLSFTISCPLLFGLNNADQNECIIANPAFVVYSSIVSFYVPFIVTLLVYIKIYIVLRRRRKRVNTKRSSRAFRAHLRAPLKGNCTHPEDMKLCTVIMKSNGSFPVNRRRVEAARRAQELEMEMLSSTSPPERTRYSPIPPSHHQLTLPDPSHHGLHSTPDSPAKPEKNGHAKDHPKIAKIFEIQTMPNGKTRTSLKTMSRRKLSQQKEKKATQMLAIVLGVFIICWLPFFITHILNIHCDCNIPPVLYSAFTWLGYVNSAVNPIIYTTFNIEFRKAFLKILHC

Biological target: D(2) dopamine receptor (Homo sapiens, UniProt P14416)
Experiment: Displacement of [3H]spiperone from human recombinant dopamine D2L receptor expressed in HEK293 cells by microplate scintillation counting
Format: cell-based
Procedure, shortened: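 Human D2L or D3 receptor stably expressed in HEK cells, or D4.4 in CHO cells. Competition binding against [3H]spiperone as the D2-like radioligand. Ki values in nM are means of two or three experiments, each run in triplicate, ± SEM.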

Ki: > 10 µM
Compound: c1ccc2c(c1)CCN1Cc3cccc4[nH]cc(c34)C21 (stereo unspecified)
